Target: T1, Mouse liver FBPase (Mus musculus, UniProt Q9QXD6)
T1 construct: This partially purified fraction was used for enzyme assays; from tissue; host or cells: mouse liver (45-75% ammonium sulfate fraction of the homogenate)
T1 sequence (Q9QXD6 2-338 limits assumed): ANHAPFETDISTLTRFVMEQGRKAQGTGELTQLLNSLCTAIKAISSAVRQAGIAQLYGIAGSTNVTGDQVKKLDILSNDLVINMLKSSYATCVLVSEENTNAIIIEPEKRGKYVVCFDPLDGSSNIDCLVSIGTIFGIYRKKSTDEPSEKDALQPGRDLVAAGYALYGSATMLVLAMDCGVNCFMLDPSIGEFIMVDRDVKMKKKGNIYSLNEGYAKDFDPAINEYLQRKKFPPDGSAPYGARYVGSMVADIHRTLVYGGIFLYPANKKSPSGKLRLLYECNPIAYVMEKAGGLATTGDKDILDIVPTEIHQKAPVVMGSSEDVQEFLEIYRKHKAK
Assay: Inhibition of mouse liver FBPase
Assay type: biochemical

Compound CCc1cc(F)c(N)c2nc(-c3ccc(P(=O)(O)O)o3)n(CC(C)C)c12 [Compound E] has an IC50 of 1100 nM.
